Target: T1, D3 receptors (Chlorocebus aethiops, UniProt P52703)
T1 construct: expressed in transfected cells; host or cells: COS cells
Assay: D3 receptor binding (displacement of 0.5 nM 3H-YM 09151-2)
Set-up: species or system African Green monkey
Conditions: pellets of COS cells with recombinant D3, nonspecific binding with 1 mM spiperone
Description: Assay for D2 and D3 Receptor Binding Activity
Pellets of COS cells containing recombinantly produced D2 or D3 receptors from African Green monkey were used for the assays. The sample is homogenized in 100 volumes (w/vol) of 0.05 M Tris HCl buffer at 4° C. and pH 7.4. The sample is then centrifuged at 30,000 ×g and resuspended and rehomogenized. The sample is then centrifuged as described and the final tissue sample is frozen until use. The tissue is resuspended 1:20 (wt/vol) in 0.05 M Tris HCl buffer containing 100 mM NaCl.
Incubations are carried out at 48° C. and contain 0.4 ml of tissue sample, 0.5 nM ^3 H-YM 09151-2 and the compound of interest in a total incubation of 1.0 ml. Nonspecific binding is defined as that binding found in the presence of […] spiperone; without further additions, nonspecific binding is less than 20% of total binding. The binding characteristics of representative compounds of the invention for D2 and D3 receptor subtypes are shown in Table 2 for rat striatal homogenates.

The chains behind the UniProt entries cited, without tags or fusion partners.
UniProt P52703, whole entry: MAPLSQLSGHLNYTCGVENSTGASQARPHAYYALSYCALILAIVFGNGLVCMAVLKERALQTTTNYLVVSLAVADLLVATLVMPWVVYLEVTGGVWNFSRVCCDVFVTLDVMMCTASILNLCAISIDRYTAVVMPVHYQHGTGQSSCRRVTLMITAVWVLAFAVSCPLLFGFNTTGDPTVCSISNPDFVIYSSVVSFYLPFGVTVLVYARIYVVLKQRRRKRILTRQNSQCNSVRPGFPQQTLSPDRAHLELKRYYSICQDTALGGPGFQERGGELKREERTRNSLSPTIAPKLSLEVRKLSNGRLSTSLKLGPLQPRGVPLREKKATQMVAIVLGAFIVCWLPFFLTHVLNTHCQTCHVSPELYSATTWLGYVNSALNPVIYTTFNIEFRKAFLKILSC

Substance: N-(1-{4-[4-(2-Methylphenyl)piperazin-1-yl]}butyl)-2-anthraquinonecarboxamide hydrochloride [Compound 7]
- Ki: 1 nM

Reference: patent US5922879A, “N-aminoalkyl-2-anthraquinonecarboxamides: new dopamine receptor subtype specific ligands” (Neurogen Corporation, priority 1997, dated 1999)
